Results reported in paper PMC6289942, “Development of a NS2B/NS3 protease inhibition assay using AlphaScreen® beads for screening of anti-dengue activities” (Heliyon, 2018).

Molecular target: Dengue NS2B/NS3 protease enzyme (DENV2) (dengue virus serotype 2 (DENV2)) (UniProt P14340)

Q: What does the source list for “Aprotinin (from UniProt P00974 36-93) (natural protein)”?
A: IC50 of inhibition of NS2B/NS3 protease activity: cleavage of the tagged peptide substrate, read in the AlphaScreen assay: 0.35 µM; IC50 of inhibition of NS2B/NS3 protease activity: protease assay with the fluorogenic substrate BOC-Gly-Arg-Arg-AMC: 0.15 µM
